We go through two substances from patent publication US8933133B2, “Animal feeds containing polyols” (ADM Alliance Nutrition, Inc., priority 2006, dated 2015).

This data set relates to rumen fluid. As to the method:
Fermentations were performed on two separate days where gas production was monitored every 30 minutes. In addition, pH, ammonia (NH3), and volatile fatty acid (“VFA”) production were measured after 24 hours. Duplicate samples of each compound were evaluated using in vitro rumen fermentations.
Duplicate samples of these compounds were fermented in vitro using rumen fluid as inoculum. Samples were weighed into 150 mL serum bottles (0.3 grams per bottle) using a CO2 atmosphere to provide an anaerobic environment. A standard buffered media was prepared (no additional feed matter was included in the fermentation), degassed, and added to the serum bottles (see, Goering, H. K., and P. J. Van Soest, “Forage Fiber Analyses (Apparatus, Reagents, Procedures, and Some Applications),” Agric. Handbook, No 379, ARS-USDA, Washington, D.C., 1970). Rumen fluid was obtained from a dairy cow, filtered, and added to the serum bottles as 20% of the total fluid addition (30 mL total fluid volume). The serum bottles were sealed, placed in an incubator, and the fermentation was allowed to proceed. Fermentations were performed on two separate days, during which time gas production was monitored every 30 minutes and pH, NH3, and VFA production measured after 24 hours.

As for polyglycerol 4 [PG4], the “Gas 24 h” value turned out to be 7.6 mL/0.3 g. Next, polyglycerol 8 [PG8]: 7.6 mL/0.3 g.
